Experimental findings from patent US20070275379A1 are described below.

Chains of the proteins cited; added tags and fusions are not shown. Lines headed by an entry give the natural chain unless they say otherwise; changes in a name come on top.
UniProt Q13519: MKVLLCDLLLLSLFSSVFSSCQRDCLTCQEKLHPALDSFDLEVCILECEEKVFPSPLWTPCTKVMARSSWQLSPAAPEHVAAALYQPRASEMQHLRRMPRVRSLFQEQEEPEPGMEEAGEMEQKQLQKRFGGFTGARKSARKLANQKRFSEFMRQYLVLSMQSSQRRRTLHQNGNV

The target of test [1] is rhesus monkey ORL1 (rhesus monkey). Kind of test: saturation radioligand binding, filtration, on membranes of CHO-K1 cells expressing rhesus monkey ORL1.
Test [2] has the same target. Kind of test: cell-based or functional assay.

In the case of “[125I][Tyr14]nociceptin (from UniProt Q13519 130-146) (peptide)”, the Kd (commonly the constant that tells how readily two partners part at equilibrium) in test [1] came out at 0.027 nM.

For “nociceptin (from UniProt Q13519 130-146) (peptide)”, the EC50 of nociceptin-stimulated specific [35S]GTPgammaS binding to membranes in test [2] was determined as 2.3 nM.
